pIC50, pKi: −log10 of the molar value. Where two headings read alike, the source gives them in different places.
Experiments:
[1] = system: durch Skopolamin hervorgerufene Amnesie; experiment: Dark avoidance assay (passive avoidance), scopolamine-induced amnesia; format: in vivo, Mäusen; settings: for antiamnestische Wirkung: in words, compared with Amyridin; for Einfluß auf das Gedächtnis: Zahl der Tiere in %, bei denen die Skopolaminwirkung aufgehoben wurde: mice, compound s.c. 5 min before learning, Skopolamin i.p. 30 min before
[2] = Acute toxicity, single intraperitoneal injection, probit analysis (LD50); settings: mice, i.p.
[3] = molecular target: Acetylcholinesterase menschlicher Erythrozyten (Homo sapiens, UniProt P22303); experiment: Acetylcholinesterase inhibition, spectrophotometric; format: biochemical
[4] = Side effects and CNS/behaviour: tremor (TD50), sedative and m-cholinomimetic effects; format: in vivo; settings: for Verhältnis TD50 zu ED50: ED50 = dose blocking the effect of Skopolamin in 50 % of the animals (passive avoidance, mice); for TD50 (Tremor): toxic dose causing tremor in 50 % of the animals
[5] = system: Nerven-Muskel-Präparat von Mäusen (n.peroneus-m.extensor digitorum longus); experiment: Neuromuscular transmission in isolated nerve-muscle preparation (EPP, minEPP); settings: for Stimulierung der Nerven-Muskelübertragung, in % der Amplitude: EPP: EPP = Endplattenpotential
[6] = system: K -Durchlässigkeit der Membrane des Ranvier-Schnürringes; experiment: K+ permeability of the node of Ranvier membrane, voltage clamp; set-up: species or system Frosches
[7] = system: Na -Durchlässigkeit der Membrane des Ranvier-Schnürringes; experiment: Na+ permeability of the node of Ranvier membrane, voltage clamp; set-up: species or system Frosches
[8] = tested form: hemisulfate monohydrate (2:1 H2SO4)

The chains behind the UniProt entries cited, without tags or fusion partners. Residues count along the entry.
UniProt P22303, 32-617 isoform 2 limits assumed: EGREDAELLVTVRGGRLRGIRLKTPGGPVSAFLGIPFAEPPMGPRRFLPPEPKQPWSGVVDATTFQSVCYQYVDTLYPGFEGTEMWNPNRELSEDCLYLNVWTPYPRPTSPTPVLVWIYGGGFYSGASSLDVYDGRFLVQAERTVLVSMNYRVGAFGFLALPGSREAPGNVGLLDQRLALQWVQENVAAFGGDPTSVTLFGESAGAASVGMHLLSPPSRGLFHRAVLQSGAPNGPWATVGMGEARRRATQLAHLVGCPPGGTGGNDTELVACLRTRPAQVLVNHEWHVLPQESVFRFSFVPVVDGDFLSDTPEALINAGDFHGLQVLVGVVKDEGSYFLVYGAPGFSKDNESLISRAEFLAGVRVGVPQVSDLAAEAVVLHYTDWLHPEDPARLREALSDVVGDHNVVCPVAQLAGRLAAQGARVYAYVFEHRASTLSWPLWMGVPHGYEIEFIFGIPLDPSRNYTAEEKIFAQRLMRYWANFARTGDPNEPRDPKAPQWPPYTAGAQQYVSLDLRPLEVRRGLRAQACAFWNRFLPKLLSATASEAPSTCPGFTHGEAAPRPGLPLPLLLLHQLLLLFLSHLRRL

CCCCc1nc2c(c(N)c1C)CCC2
antiamnestische Wirkung ([1]; tested form: hydrate): antiamnestische Wirkung, welche die von Amyridin etwas übertraf
Einfluß auf das Gedächtnis: Zahl der Tiere in %, bei denen die Skopolaminwirkung aufgehoben wurde ([1]; tested form: HCl.H2O): 68%
Einfluß auf das Gedächtnis: Zahl der Tiere in %, bei denen die Skopolaminwirkung aufgehoben wurde ([1]; tested form: hydrate): 65%
LD50 ([2]; tested form: HCl.H2O): 17 mg/kg
LD50 ([2]; tested form: hydrate): 15 mg/kg
pKi ([3]; read-out: Acetylcholinesteraseinhibierung bei menschlichen Erythrozyten IK, (Mol), human erythrocyte enzyme, tested form: HCl.H2O): 5.19
pKi ([3]; read-out: Acetylcholinesteraseinhibierung bei menschlichen Erythrozyten IK, (Mol), human erythrocyte enzyme, tested form: hydrate): 5.17
Verhältnis TD50 zu ED50 ([4]; tested form: HCl.H2O): 2.2
Verhältnis TD50 zu ED50 ([4]; tested form: hydrate): 1.8
TD50 (Tremor) ([4]; tested form: HCl.H2O): 6 mg/kg
TD50 (Tremor) ([4]; tested form: hydrate): 5 mg/kg
Stimulierung der Nerven-Muskelübertragung, in % der Amplitude: EPP ([5]; tested form: HCl.H2O): 18%
Stimulierung der Nerven-Muskelübertragung, in % der Amplitude: EPP ([5]; tested form: hydrate): 18%
Stimulierung der Nerven-Muskelübertragung, in % der Amplitude: minEPP ([5]; tested form: HCl.H2O): 40%
Stimulierung der Nerven-Muskelübertragung, in % der Amplitude: minEPP ([5]; tested form: hydrate): 38%

CCCCc1c(C)nc2c(c1N)CCC2
antiamnestische Wirkung ([1]; tested form: hydrate): antiamnestische Wirkung, welche die von Amyridin etwas übertraf
Einfluß auf das Gedächtnis: Zahl der Tiere in %, bei denen die Skopolaminwirkung aufgehoben wurde ([1]; tested form: HCl): 70%
Einfluß auf das Gedächtnis: Zahl der Tiere in %, bei denen die Skopolaminwirkung aufgehoben wurde ([1]; tested form: hydrate): 65%
LD50 ([2]; tested form: HCl): 26 mg/kg
LD50 ([2]; tested form: hydrate): 25 mg/kg
pKi ([3]; read-out: Acetylcholinesteraseinhibierung bei menschlichen Erythrozyten IK, (Mol), human erythrocyte enzyme, tested form: HCl): 4.82
Verhältnis TD50 zu ED50 ([4]; tested form: HCl): 4
Verhältnis TD50 zu ED50 ([4]; tested form: hydrate): 3.5
TD50 (Tremor) ([4]; tested form: HCl): 11 mg/kg
TD50 (Tremor) ([4]; tested form: hydrate): 13 mg/kg
pIC50 ([6]; read-out: Blockierung der K^+-Durchlässigkeit der Membrane Ic50 (Mol), frog sciatic nerve fibres, concentration giving 50 % block of ion permeability, tested form: HCl): 2.10
pIC50 ([7]; read-out: Blockierung der Na^+-Durchlässigkeit der Membrane Ic50 (Mol), frog sciatic nerve fibres, concentration giving 50 % block of ion permeability, tested form: HCl): 2.07
Stimulierung der Nerven-Muskelübertragung, in % der Amplitude: EPP ([5]; tested form: HCl): 20%
Stimulierung der Nerven-Muskelübertragung, in % der Amplitude: EPP ([5]; tested form: hydrate): 22%
Stimulierung der Nerven-Muskelübertragung, in % der Amplitude: minEPP ([5]; tested form: HCl): 45%
Stimulierung der Nerven-Muskelübertragung, in % der Amplitude: minEPP ([5]; tested form: hydrate): 46%

CCc1nc2c(c(N)c1C)CCC2
Einfluß auf das Gedächtnis: Zahl der Tiere in %, bei denen die Skopolaminwirkung aufgehoben wurde [1, 8]: 70%
LD50 [2, 8]: 40 mg/kg
pKi ([3]; read-out: Acetylcholinesteraseinhibierung bei menschlichen Erythrozyten IK, (Mol), human erythrocyte enzyme, tested form: hemisulfate monohydrate (2:1 H2SO4)): 5.33
Verhältnis TD50 zu ED50 [4, 8]: 12
TD50 (Tremor) [4, 8]: 23 mg/kg
pIC50 ([6]; read-out: Blockierung der K^+-Durchlässigkeit der Membrane Ic50 (Mol), frog sciatic nerve fibres, concentration giving 50 % block of ion permeability, tested form: hemisulfate monohydrate (2:1 H2SO4)): 3.52
pIC50 ([7]; read-out: Blockierung der Na^+-Durchlässigkeit der Membrane Ic50 (Mol), frog sciatic nerve fibres, concentration giving 50 % block of ion permeability, tested form: hemisulfate monohydrate (2:1 H2SO4)): 3.48
Stimulierung der Nerven-Muskelübertragung, in % der Amplitude: EPP [5, 8]: 28%
Stimulierung der Nerven-Muskelübertragung, in % der Amplitude: minEPP [5, 8]: 50%

— patent EP0326134A1, “4-Amino-2,3-disubstituted-6,7-dihydro-5H-1-pyridine derivatives, process for their preparation and medicaments containing them” (NAUCHNO-ISSLEDOVATELSKY INSTITUT TEKHNOLOGII I BEZOPASNOSTI …, priority 1988, dated 1989)
